Measurements as given in PMC12155096 (International Journal of Molecular Sciences, 2025).
This is a selection: effects in other tests are not listed, and their absence says nothing.

Sequences of proteins named here, by UniProt entry; tags and fusion partners are left off.
UniProt P33261, whole entry: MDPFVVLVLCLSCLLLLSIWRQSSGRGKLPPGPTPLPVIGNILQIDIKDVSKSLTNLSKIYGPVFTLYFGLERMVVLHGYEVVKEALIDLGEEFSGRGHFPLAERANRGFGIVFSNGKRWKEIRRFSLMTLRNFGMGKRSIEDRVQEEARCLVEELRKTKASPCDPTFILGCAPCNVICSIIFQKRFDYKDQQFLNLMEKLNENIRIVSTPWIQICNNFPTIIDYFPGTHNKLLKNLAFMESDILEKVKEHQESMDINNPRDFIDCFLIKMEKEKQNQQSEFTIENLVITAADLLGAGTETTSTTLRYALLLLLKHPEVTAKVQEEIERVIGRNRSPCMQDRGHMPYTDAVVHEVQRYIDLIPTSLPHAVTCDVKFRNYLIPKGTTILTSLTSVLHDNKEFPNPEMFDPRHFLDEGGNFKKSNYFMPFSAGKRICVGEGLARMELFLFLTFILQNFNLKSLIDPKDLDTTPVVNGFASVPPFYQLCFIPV
UniProt P05177, whole entry: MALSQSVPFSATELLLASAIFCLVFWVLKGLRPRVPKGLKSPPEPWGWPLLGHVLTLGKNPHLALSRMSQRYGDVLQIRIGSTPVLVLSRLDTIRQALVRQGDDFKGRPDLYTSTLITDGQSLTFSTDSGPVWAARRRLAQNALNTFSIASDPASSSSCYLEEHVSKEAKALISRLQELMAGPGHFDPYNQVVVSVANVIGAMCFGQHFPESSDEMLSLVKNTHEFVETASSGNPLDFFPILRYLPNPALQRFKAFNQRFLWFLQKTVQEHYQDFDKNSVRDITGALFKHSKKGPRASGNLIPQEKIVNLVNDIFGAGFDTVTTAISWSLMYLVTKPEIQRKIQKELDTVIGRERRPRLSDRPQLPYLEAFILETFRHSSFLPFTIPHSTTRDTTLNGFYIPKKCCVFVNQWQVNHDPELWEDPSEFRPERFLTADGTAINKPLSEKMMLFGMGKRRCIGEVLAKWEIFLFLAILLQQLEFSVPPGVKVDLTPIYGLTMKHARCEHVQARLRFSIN
UniProt P11712, whole entry: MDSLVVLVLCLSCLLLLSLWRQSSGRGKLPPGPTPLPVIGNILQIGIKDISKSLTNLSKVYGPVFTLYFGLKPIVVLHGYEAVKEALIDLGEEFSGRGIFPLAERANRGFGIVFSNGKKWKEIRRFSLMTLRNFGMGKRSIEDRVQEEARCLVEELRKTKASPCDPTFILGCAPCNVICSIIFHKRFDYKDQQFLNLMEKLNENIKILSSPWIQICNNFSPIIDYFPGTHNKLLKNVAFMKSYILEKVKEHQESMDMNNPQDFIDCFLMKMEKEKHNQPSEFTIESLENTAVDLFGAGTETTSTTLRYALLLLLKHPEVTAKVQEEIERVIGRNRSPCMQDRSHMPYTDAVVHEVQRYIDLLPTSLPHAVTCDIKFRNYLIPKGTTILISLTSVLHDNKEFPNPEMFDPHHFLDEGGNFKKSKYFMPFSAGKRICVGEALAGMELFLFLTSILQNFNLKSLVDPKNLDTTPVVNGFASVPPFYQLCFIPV
UniProt P10635, whole entry: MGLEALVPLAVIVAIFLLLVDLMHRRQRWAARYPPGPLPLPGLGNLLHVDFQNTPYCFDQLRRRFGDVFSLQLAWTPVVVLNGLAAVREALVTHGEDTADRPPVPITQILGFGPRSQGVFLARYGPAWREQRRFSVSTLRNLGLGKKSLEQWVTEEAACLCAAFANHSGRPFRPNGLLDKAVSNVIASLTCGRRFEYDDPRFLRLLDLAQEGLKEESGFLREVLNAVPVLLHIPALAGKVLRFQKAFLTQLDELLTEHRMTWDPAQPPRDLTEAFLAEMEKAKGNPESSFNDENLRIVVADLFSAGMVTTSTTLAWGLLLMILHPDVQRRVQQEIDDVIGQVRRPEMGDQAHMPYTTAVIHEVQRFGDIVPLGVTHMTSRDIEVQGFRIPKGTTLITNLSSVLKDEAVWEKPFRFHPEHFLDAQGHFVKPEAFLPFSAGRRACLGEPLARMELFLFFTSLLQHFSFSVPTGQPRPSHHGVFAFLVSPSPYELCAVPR
UniProt P08684, whole entry: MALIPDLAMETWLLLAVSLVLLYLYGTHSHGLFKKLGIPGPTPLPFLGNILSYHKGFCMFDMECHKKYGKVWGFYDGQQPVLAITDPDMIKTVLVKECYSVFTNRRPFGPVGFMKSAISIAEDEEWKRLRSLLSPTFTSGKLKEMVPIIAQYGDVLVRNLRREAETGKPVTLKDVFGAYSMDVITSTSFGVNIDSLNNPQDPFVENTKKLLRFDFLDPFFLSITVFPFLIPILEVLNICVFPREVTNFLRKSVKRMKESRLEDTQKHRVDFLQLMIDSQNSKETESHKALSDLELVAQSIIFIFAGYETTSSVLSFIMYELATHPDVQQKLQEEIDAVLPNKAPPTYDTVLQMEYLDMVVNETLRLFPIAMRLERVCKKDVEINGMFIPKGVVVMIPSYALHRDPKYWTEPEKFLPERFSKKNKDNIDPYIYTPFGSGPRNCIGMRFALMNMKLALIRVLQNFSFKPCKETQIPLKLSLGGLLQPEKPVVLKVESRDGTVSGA

Assays:
human CYP2C19 = human CYP2C19 (Homo sapiens, UniProt P33261); settings: mean ± standard deviation from three experiments; words = activity call
human CYP1A2 = human CYP1A2 (Homo sapiens, UniProt P05177); settings: read-out: CYP1A2 AC50 (half-maximal activity concentration); mean ± standard deviation from three experiments; words = activity call
human CYP2C9 = human CYP2C9 (Homo sapiens, UniProt P11712); settings: mean ± standard deviation from three experiments; words = activity call
human CYP2D6 = human CYP2D6 (Homo sapiens, UniProt P10635)
CYP3A4 = CYP3A4 (Homo sapiens, UniProt P08684); settings: read-out: CYP3A4 AC50 (half-maximal activity concentration); mean ± standard deviation from three experiments; words = activity call

Row | Molecule | CYP2C19 AC50 (half-maximal activity concentration) (human CYP2C19) | AC50 (human CYP1A2) [µM] | CYP2C9 AC50 (half-maximal activity concentration) (human CYP2C9) | CYP2D6 AC50 (half-maximal activity concentration) (human CYP2D6; mean ± standard deviation from three experiments, words = activity call) | AC50 (CYP3A4) [µM] | IC50 (human CYP2D6; read-out: IC50 CYP2D6 assay, P450-Glo, 30 µM Luciferin-ME EGE, 60 min RT, mean ± SD) [µM]
1 | Cc1c([N+](=O)[O-])cccc1[N+](=O)[O-] | Inconclusive | 16.8 | Inactive | Inactive | 15.4 | –
2 | norfentanyl | – | – | – | – | – | 4.5
